Test results: article PMC8416565, “Inhibition of the MAP2K7-JNK pathway with 5Z-7-oxozeaenol induces apoptosis in T-cell acute lymphoblastic leukemia” (Oncotarget, 2021)

Target: T1, TAK1 (TAK1-TAB1) (Homo sapiens, UniProt O43318)
T1 construct: gene MAP3K7; constitutively active TAK1-TAB1 fusion (Promega V4088); with TAB1
T1 sequence (O43318 1-606): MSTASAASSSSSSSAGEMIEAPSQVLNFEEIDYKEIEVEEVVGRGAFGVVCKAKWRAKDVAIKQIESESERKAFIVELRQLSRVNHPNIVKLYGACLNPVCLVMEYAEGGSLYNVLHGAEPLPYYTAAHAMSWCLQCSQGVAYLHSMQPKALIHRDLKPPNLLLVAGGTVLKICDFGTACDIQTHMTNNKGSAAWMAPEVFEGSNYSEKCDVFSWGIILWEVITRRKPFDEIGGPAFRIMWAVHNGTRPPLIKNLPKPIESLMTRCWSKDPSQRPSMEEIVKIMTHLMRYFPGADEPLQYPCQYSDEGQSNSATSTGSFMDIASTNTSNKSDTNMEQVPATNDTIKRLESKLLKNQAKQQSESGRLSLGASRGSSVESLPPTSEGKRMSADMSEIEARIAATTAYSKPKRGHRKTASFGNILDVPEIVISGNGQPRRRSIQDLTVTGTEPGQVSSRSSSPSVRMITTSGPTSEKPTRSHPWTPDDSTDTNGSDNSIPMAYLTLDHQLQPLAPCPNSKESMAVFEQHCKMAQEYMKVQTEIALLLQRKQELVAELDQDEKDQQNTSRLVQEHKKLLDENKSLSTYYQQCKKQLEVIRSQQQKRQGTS
T1 sequence (Q15750 1-504 partner): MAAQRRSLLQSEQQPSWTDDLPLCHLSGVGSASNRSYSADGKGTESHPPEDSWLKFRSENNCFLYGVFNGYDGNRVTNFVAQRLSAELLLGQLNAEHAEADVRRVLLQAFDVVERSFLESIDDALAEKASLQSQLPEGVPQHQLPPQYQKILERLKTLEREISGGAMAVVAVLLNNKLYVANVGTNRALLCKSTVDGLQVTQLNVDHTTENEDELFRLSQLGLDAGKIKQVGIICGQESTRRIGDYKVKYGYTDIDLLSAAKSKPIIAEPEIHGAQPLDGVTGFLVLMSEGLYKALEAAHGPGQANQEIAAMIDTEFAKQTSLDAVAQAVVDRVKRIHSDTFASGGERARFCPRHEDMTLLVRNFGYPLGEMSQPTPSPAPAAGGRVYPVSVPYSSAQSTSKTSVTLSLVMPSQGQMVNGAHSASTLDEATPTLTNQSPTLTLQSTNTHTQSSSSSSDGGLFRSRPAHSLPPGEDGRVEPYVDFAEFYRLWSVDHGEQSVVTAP
Test: ADP-Glo in vitro kinase assay, MBP substrate, 30-min preincubation
Assay type: biochemical

IC50: 0.086 µM
Compound: COc1cc(O)c2c(c1)/C=C/C[C@H](O)[C@H](O)C(=O)/C=C\C[C@H](C)OC2=O [5Z7O, 5Z-7-oxozeaenol]
